Drawing on patent publication US20090070901A1, this text covers carboxylase velocity of spinach Rubisco and Kd for one substance.

One may read the Kd as the constant that tells how readily two partners part at equilibrium.

The target of assay [1] is des(methyl) spinach Rubisco (ribulose-1,5-bisphosphate carboxylase-oxygenase holoenzyme) (spinach) (UniProt P00875). The experiment in a line: cell-based or functional assay.
Assay [2] has the same target. The experiment in a line: method not stated for the conjugate; FIG. 1 estimates the KD of Rubisco LSMT from association and dissociation on PVDF-immobilized Rubisco.

Substance “human carbonic anhydrase II (HCAII)-pea Rubisco LSMT conjugate (glutaraldehyde cross-linked) (from UniProt Q43088 38-489; P00918 2-260)” displayed a carboxylase velocity of spinach Rubisco at 15 µM CO2 (µmoles/min/mg protein) in assay [1] of 2.08. Moreover, the dissociation constant (Kd) in assay [2] is 0.1 nM.
